In experiment [1] the target is 5-hydroxytryptamine receptor 1B (Homo sapiens, UniProt P28222). The experiment in a line: PDSP Secondary Binding target: HTR1B - Compounds are tested at 10 uM concentration, plate are incubated at room temperature in the dark for 90 minutes. Reaction are stopped by vacuum filtration onto 0.3% polyethyleneimine soaked filter mats using Filtermate harvester. Scintillation cocktail is then melted onto microwave-dried filters on a hot plate and the radio activity is counted in Microbia ….

Protein sequences, listed by entry. Tags and fused reporters are not part of them. Lines headed by an entry give the natural chain unless they say otherwise; changes in a name come on top.
UniProt P28222, whole entry: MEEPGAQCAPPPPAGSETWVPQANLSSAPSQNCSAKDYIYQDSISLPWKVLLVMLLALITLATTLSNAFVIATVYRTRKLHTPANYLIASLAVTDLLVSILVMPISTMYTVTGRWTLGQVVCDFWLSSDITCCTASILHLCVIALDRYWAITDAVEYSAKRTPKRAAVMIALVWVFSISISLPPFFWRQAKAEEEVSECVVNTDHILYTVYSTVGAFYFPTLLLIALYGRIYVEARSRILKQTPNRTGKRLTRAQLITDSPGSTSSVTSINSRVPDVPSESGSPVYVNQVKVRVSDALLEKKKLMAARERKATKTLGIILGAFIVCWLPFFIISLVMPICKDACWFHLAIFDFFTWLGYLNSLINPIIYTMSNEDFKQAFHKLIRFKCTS
UniProt P28335: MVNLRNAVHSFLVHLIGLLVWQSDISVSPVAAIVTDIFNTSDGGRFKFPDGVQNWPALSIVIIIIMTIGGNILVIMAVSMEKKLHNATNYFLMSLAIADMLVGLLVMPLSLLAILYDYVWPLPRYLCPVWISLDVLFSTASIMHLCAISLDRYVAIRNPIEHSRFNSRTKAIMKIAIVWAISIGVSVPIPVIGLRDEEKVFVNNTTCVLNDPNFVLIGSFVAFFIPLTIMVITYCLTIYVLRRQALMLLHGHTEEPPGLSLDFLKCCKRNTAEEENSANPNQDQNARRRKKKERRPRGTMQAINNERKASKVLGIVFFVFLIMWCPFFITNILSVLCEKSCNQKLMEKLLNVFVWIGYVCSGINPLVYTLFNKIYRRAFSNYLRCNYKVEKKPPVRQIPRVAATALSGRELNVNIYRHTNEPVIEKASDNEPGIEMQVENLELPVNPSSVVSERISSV
UniProt P08913, whole entry: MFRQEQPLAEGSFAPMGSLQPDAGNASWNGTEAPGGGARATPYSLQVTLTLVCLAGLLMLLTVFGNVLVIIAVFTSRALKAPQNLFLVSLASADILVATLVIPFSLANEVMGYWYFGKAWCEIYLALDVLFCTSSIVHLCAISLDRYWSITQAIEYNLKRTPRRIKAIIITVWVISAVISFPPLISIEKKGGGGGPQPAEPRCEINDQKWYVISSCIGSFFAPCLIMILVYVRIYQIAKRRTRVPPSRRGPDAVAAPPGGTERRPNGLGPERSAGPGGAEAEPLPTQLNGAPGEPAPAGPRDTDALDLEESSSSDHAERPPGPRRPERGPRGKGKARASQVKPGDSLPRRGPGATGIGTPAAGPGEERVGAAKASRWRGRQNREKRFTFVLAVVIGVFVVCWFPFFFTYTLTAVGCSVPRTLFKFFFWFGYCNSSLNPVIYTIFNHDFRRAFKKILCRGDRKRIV

Experiment [2] deals with 5-hydroxytryptamine receptor 2C (Homo sapiens, UniProt P28335).
In experiment [3] the target is Alpha-2A adrenergic receptor (Homo sapiens, UniProt P08913).

Where a name gives a salt, the structure may show the parent alone.

For the molecule `CN[C@@H]1CCc2[nH]c3ccc(C(N)=O)cc3c2C1` [FROVATRIPTAN SUCCINATE], the affinity in experiment [1], expressed as Ki, was 22.9 nM.
Take `CCc1nn(CCCN2CCN(c3cccc(Cl)c3)CC2)c(=O)n1CCOc1ccccc1` [NEFAZODONE HYDROCHLORIDE]: the results for the Ki in experiment [2] and in experiment [3] were 253 nM and 1370 nM, respectively.
Consider `COC(=O)[C@H]1[C@H]2C[C@H]3c4[nH]c5ccccc5c4CCN3C[C@H]2CC[C@@H]1O` [RAUWOLSCINE HYDROCHLORIDE], for which the Ki (usually the dissociation constant of the complex between target and ligand, obtained from inhibition or displacement) in experiment [1] was 232 nM.

(Values after ChEMBL document CHEMBL5442175, “EUbOPEN Chemogenomics Library - PDSP Secondary Binding” (2024).)
